Earlier results on one substance are cited in US12370241B2, “Nasal powder formulation for treatment of hypoglycemia” (AMPHASTAR PHARMACEUTICALS, INC., priority 2015, dated 2025).

The conditions of the data set: water; cited from earlier work.

Consider γ (gamma)-cyclodextrin, for which the Aqueous solubility entry is recorded as “freely soluble in water”.
